Literature values in US5071857A, “2,6-dioxopiperidine derivatives, their preparation and pharmaceutical compositions containing them” (National Research Development Corporation, priority 1983, dated 1991).

Test system: aromatase
Settings: background; cited from earlier work

## CCC1(c2ccc(N)cc2)CCC(=O)NC1=O (stereo not shown) [aminoglutethimide, reference compound]
  inhibition in vivo of aromatase in peripheral tissue: ability to inhibit in vivo the activity of the enzyme aromatase in peripheral tissue
